Biological target: Acetylcholinesterase (Electrophorus electricus, UniProt O42275)

Protein sequences, listed by entry. Tags and fused reporters are not part of them. Lines headed by an entry give the natural chain unless they say otherwise; changes in a name come on top.
UniProt O42275: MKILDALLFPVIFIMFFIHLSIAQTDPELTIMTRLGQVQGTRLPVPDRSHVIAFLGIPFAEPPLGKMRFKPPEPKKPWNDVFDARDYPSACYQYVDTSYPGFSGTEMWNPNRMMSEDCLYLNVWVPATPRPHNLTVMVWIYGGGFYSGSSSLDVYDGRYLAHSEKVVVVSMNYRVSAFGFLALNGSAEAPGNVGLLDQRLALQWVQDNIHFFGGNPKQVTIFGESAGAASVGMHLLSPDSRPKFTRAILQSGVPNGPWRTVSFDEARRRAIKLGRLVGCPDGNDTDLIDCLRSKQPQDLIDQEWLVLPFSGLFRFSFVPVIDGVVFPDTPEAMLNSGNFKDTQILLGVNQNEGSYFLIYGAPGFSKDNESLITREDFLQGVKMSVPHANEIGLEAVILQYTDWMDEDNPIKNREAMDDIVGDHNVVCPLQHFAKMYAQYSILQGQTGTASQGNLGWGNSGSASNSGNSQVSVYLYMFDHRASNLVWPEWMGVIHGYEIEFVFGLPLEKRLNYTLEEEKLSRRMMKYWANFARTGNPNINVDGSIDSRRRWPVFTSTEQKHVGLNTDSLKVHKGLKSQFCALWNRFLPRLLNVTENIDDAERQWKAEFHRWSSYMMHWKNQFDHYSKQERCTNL

CNC(=O)Oc1ccc2c(c1)[C@]1(C)CCN(C)[C@@H]1N2C [PHYSOSTIGMINE]
IC50: 1.56 µM

Source: ChEMBL document CHEMBL6096640, “Discovery of novel thiosemicarbazone-acridine targeting butyrylcholinesterase with antioxidant, metal complexing and neuroprotector abilities as potential treatment of Alzheimer's disease: In vitro, in vivo, and in silico studies” (Eur J Med Chem, 2025)
